Publication PMC6892409, “Phenotypic proteomic profiling identifies a landscape of targets for circadian clock–modulating compounds” (Life Science Alliance, 2019)

By UniProt entry, the sequences of proteins in these tests, tags left out. Where a name states a change or a piece, a line headed by the entry shows the natural chain unless it says otherwise. Residues count along the entry.
UniProt Q9NP81, 35-518: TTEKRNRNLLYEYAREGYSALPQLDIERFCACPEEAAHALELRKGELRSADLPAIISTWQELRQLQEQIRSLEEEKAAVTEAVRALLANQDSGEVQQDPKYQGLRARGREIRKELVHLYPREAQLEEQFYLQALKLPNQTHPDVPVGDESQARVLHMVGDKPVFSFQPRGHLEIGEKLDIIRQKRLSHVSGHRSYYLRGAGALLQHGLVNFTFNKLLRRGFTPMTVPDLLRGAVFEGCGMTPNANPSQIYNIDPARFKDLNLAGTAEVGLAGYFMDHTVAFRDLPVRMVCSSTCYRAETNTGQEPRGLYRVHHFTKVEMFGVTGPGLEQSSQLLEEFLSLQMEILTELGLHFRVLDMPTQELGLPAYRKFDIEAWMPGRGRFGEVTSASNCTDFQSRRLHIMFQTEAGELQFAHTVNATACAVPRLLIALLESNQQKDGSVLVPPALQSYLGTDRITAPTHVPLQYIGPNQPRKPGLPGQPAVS
UniProt Q9HBL0: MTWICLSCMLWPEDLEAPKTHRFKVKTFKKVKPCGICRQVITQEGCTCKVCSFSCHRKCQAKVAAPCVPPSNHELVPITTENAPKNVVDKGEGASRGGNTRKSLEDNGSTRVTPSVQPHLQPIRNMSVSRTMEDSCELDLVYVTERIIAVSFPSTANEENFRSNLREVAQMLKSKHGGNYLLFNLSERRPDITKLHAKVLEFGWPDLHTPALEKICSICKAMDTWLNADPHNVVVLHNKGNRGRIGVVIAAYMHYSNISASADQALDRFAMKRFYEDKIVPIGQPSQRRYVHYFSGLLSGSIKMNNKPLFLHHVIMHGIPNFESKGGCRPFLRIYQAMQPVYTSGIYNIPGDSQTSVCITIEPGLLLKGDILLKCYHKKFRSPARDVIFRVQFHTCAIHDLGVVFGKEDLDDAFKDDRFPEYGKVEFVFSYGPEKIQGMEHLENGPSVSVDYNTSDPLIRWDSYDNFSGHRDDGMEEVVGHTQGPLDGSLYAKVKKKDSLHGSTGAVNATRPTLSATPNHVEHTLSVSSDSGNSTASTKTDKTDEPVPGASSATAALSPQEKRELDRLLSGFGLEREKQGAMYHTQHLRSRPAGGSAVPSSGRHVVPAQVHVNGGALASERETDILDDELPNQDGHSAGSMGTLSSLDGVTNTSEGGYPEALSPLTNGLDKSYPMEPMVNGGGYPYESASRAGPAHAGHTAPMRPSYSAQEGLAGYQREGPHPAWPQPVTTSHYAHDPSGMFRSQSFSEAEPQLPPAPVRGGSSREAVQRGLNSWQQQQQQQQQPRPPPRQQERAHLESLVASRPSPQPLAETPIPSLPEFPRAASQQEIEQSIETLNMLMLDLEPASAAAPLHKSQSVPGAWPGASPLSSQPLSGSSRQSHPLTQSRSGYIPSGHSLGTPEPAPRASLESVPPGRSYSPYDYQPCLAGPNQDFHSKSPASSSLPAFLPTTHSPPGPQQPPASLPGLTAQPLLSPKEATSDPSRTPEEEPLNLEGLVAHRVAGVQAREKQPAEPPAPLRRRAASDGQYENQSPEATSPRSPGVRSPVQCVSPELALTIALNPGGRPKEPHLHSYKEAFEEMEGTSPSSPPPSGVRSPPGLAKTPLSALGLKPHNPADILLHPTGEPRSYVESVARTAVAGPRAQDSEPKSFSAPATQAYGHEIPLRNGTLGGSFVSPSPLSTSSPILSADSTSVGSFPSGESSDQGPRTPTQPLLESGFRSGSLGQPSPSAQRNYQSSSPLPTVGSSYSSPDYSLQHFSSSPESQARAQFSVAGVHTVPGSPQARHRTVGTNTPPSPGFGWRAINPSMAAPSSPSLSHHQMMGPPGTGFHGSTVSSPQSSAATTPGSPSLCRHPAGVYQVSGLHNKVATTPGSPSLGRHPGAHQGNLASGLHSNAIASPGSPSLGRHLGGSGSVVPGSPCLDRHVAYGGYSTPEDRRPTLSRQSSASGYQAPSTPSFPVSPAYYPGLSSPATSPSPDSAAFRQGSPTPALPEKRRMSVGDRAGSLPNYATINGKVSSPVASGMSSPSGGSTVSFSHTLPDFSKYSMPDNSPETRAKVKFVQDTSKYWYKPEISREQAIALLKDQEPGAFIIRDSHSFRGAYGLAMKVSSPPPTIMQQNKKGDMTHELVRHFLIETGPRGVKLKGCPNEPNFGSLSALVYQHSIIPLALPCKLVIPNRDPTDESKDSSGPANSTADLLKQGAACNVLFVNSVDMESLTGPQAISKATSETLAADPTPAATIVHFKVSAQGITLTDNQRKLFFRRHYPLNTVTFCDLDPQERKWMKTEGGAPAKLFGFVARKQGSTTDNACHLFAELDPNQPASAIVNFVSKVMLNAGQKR
UniProt Q13409, whole entry: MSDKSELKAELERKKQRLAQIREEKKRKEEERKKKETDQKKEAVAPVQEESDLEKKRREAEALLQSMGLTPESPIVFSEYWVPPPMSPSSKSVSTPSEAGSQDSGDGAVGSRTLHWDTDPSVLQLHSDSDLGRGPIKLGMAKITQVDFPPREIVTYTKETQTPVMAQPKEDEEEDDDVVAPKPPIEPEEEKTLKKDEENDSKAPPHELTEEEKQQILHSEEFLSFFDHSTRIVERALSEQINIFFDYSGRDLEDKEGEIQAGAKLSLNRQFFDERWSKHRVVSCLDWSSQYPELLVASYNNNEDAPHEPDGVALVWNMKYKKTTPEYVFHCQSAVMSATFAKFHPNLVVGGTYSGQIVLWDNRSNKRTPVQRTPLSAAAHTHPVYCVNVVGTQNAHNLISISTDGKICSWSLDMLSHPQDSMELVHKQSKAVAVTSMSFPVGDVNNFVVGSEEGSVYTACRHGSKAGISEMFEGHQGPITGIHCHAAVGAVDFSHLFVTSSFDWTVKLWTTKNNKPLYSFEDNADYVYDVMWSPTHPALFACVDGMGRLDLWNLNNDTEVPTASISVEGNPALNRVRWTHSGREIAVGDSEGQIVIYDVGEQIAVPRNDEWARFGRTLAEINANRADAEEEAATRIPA

How the values were obtained:
Experiment in all cases: TPP in intact U2OS cells
NFU1 = target: T1, NFU1 (Homo sapiens, UniProt Q9UMS0); type: binding
T1 sequence (Q9UMS0 10-254): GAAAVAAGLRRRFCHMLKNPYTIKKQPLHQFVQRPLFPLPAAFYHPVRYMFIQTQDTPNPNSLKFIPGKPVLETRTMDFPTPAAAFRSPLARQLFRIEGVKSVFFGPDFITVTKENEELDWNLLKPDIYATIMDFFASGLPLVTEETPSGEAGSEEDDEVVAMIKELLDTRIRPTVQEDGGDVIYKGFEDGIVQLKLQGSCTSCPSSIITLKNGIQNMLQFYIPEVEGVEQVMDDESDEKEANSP

SARS2 = SARS2 (Homo sapiens, UniProt Q9NP81); type: binding
PSMG4 = target: T2, PSMG4 (Homo sapiens, UniProt Q5JS54); type: binding
T2 sequence (Q5JS54 1-123): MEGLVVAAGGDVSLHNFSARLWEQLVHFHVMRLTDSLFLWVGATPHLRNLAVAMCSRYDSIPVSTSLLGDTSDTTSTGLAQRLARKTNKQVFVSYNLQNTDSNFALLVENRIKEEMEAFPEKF

[1] = target: T3, Rab GTPase-binding effector protein 1 (RABEP1) (Homo sapiens, UniProt Q15276)
T3 sequence (Q15276 1-862): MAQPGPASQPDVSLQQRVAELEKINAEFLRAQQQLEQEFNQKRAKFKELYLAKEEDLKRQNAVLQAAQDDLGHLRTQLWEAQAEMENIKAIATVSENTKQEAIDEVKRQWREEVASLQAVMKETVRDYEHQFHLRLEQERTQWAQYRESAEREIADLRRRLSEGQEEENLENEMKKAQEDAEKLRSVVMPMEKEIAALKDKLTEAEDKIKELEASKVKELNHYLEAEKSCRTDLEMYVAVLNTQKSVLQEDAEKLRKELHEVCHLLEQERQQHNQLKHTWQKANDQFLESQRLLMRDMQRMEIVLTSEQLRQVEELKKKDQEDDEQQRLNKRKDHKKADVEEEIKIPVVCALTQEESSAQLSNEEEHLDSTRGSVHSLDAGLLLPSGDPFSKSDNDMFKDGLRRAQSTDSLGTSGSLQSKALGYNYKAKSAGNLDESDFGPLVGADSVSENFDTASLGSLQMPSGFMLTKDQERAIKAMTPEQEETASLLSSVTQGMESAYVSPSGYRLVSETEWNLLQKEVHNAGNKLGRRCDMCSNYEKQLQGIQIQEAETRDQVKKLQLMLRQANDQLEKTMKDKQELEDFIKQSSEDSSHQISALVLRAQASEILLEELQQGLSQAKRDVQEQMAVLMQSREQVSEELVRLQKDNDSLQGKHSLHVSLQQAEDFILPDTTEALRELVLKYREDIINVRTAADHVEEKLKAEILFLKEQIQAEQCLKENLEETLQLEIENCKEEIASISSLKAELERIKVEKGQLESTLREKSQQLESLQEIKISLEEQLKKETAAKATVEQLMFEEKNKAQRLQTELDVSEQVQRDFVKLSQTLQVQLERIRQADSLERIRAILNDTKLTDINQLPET

CYCS = target: T4, CYCS (Homo sapiens, UniProt P99999); type: binding
T4 sequence (P99999 1-105): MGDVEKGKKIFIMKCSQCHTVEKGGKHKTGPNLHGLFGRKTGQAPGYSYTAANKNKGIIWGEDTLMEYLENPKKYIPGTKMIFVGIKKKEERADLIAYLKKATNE

RPL37 = RPL37 (Homo sapiens, UniProt P61927)
[2] = target: T5, Cleavage stimulation factor subunit 2 tau variant (CSTF2T) (Homo sapiens, UniProt Q9H0L4); type: binding
T5 sequence (Q9H0L4 1-616): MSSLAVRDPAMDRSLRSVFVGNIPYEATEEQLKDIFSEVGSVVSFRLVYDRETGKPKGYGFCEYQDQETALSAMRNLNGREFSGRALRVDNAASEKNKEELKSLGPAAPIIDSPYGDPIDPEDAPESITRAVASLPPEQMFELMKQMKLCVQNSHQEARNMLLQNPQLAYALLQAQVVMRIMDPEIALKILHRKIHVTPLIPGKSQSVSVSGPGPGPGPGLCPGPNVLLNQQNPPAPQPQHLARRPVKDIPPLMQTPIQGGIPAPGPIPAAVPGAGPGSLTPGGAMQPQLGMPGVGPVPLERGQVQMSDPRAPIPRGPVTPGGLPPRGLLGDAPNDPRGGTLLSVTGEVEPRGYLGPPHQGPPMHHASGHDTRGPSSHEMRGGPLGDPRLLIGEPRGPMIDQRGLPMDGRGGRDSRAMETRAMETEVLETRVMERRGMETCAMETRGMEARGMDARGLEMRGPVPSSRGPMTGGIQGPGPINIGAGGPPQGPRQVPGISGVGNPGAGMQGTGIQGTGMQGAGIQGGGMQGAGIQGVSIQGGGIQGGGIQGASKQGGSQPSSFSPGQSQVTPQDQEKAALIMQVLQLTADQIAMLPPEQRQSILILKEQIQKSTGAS

TNS1 = TNS1 (Homo sapiens, UniProt Q9HBL0); type: binding
F-box protein 21 (FBX21) = target: T6, F-box protein 21 (FBX21) (Homo sapiens, UniProt O94952)
T6 sequence (O94952 1-628): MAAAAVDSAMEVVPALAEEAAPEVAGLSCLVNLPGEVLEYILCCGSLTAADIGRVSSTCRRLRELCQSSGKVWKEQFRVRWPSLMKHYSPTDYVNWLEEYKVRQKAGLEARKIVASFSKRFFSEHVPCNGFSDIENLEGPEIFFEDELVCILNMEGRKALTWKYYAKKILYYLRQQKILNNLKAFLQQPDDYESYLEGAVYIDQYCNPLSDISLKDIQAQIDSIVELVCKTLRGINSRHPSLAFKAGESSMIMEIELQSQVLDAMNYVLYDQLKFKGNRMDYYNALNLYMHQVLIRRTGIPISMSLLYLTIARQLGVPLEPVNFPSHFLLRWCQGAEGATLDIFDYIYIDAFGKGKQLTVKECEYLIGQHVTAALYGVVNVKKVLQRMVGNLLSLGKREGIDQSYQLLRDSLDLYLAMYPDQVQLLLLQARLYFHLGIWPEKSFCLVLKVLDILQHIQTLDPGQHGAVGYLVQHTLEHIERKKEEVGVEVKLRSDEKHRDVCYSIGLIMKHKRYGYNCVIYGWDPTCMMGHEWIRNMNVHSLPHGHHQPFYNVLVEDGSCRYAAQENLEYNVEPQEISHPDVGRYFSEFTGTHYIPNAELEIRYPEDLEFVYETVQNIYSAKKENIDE

DYNC1I2 = DYNC1I2 (Homo sapiens, UniProt Q13409); type: binding

Work on CC[C@H](CO)Nc1nc(NCc2ccccc2)c2ncn(C(C)C)c2n1 [Roscovitine, roscovitine] yielded a ΔTm at 10 µM (NFU1; read-out: + Tm shift NFU1, Rep1) of 2.1 °C, a ΔTm at 10 µM (NFU1; read-out: + Tm shift NFU1, Rep2) of 0.4 °C and a ΔTm at 10 µM (SARS2; read-out: + Tm shift SARS2, Rep1) of 0.9 °C. For the same compound, the ΔTm at 10 µM (SARS2; read-out: + Tm shift SARS2, Rep2) was 1.3 °C, the ΔTm at 10 µM (PSMG4; read-out: + Tm shift PSMG4, Rep1) was 4.4 °C and the ΔTm at 10 µM (PSMG4; read-out: + Tm shift PSMG4, Rep2) was 4.1 °C. The ΔTm at 10 µM ([1]; read-out: + Tm shift RABEP1, Rep1) was 2.5 °C, the ΔTm at 10 µM ([1]; read-out: + Tm shift RABEP1, Rep2) was 2.7 °C and the ΔTm at 10 µM (CYCS; read-out: + Tm shift CYCS, Rep1) was 1.1 °C. The ΔTm at 10 µM (CYCS; read-out: + Tm shift CYCS, Rep2) was 1.4 °C, the ΔTm at 10 µM (RPL37; read-out: + Tm shift RPL37, Rep1) was 1.3 °C and the ΔTm at 10 µM (RPL37; read-out: + Tm shift RPL37, Rep2) was 0.6 °C. For the same compound, the ΔTm at 10 µM ([2]; read-out: + Tm shift CSTF2T, Rep1) was 2.2 °C, the ΔTm at 10 µM ([2]; read-out: + Tm shift CSTF2T, Rep2) was 2.2 °C and the ΔTm at 10 µM (TNS1; read-out: + Tm shift TNS1, Rep1) was 0.8 °C. The ΔTm at 10 µM (TNS1; read-out: + Tm shift TNS1, Rep2) was 2.1 °C, the ΔTm at 10 µM (F-box protein 21 (FBX21); read-out: + Tm shift FBX21, Rep1) was 4.1 °C and the ΔTm at 10 µM (F-box protein 21 (FBX21); read-out: + Tm shift FBX21, Rep2) was 1.7 °C. It also gave a ΔTm at 10 µM (DYNC1I2; read-out: + Tm shift DYNC1I2, Rep1) of 2.9 °C and a ΔTm at 10 µM (DYNC1I2; read-out: + Tm shift DYNC1I2, Rep2) of 1.1 °C.

Read-outs that look alike come from different tables or passages of the source.
